This is an account of results in PMC7723054.

The other results are listed elsewhere or left out.

Assay in all cases: FOREST: bead pull-down of RNA structure library v1, barcode microarray; U1A/LIN28A: 20 mM HEPES pH 7.5, 80 mM KCl, 20 mM NaCl, 10% glycerol, 2 mM DTT, 0.1 ug/uL BSA, 4 C; BG4/CIRBP/DHX36: 10 mM Tris-HCl pH 7.5, 100 mM KCl (or LiCl),; high values mean tight binding
The target of one test is U1A (Homo sapiens, UniProt P09012).
The target of another test is T1, LIN28A (human?, UniProt Q9H9Z2 1-209).
T1 sequence: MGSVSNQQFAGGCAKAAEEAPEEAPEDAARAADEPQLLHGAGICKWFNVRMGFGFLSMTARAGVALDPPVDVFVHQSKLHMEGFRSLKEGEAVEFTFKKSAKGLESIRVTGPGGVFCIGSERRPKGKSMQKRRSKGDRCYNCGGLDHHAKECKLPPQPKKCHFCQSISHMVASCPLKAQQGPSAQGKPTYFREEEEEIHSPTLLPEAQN

For the next test, the target named is T2, CIRBP (Homo sapiens, UniProt Q14011 1-172).
T2 sequence: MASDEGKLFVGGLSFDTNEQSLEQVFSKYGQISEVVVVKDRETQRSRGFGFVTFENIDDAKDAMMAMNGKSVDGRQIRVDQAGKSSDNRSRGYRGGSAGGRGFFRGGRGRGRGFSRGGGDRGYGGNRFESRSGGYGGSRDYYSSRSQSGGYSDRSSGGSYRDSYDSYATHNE

The next test deals with T3, DHX36 (Homo sapiens, UniProt Q9H2U1 1-1008).
T3 sequence: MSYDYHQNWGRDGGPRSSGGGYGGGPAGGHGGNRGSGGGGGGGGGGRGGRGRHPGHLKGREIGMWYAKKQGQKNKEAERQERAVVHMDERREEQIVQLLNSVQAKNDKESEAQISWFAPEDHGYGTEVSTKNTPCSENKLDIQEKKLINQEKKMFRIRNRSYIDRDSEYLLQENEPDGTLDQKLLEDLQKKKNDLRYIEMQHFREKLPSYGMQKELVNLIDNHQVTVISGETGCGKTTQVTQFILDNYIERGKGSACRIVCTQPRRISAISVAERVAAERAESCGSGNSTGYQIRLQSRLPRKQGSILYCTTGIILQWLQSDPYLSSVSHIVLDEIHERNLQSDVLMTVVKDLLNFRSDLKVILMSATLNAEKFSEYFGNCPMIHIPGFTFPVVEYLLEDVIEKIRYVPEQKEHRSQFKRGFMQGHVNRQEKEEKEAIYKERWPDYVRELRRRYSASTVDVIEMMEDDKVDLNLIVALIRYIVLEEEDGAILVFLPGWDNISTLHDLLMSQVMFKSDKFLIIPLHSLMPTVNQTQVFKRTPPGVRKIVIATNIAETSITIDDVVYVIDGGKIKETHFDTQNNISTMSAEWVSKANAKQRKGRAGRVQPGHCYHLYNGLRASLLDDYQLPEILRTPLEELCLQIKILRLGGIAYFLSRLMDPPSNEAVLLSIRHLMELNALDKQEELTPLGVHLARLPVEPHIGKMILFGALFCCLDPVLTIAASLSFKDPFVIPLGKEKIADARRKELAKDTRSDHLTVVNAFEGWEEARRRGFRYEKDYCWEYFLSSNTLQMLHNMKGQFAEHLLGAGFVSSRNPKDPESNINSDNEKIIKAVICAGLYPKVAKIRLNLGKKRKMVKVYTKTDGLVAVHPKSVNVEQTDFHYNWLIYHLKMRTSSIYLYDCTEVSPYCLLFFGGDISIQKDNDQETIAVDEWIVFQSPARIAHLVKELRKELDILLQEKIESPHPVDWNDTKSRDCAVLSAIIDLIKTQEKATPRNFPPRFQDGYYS

B1: G4_(GGGU)6 (structured_RNA)
RNA: GGGAACUCCUCCGGCUACGAUAGAGAGGGGUGUACGAAGUUUCAGCGGGUGGGUGGGUGGGUGGGUGGGUGCUGAAGCUUCGUGCAC
As to B1, the binding signal came out at 1.42 z-score with U1A, 0.639 z-score with LIN28A, 2.81 z-score in the test with CIRBP and 7.66 z-score with DHX36.

B2: hsa-mir-5579 (structured_RNA)
RNA: GGGAAGUUCGAUCCAUUCGCGGGACGACGGUGUACGAAGUUUCAGCCUAACAGGCCCCUGUCACCAUUAGGCUGAAGCUUCGUGCAC
In the case of B2, the binding signal with U1A is 1.37 z-score; with LIN28A, -1.39 z-score; in the test with CIRBP it was -0.618 z-score; with DHX36, -0.291 z-score.

B3: hsa-mir-4686 (structured_RNA)
RNA: GGGAAAUCAUUGAGCUCGACAUAUAGGCGGUGUACGAAGUUUCAGCUGUUGGCAGCCCAAGAUGACAGCUGAAGCUUCGUGCAC
Regarding B3, the binding signal was 1.41 z-score in the test with U1A, -0.54 z-score with LIN28A, -0.828 z-score with CIRBP and -0.596 z-score with DHX36.

B4: hsa-mir-614 (structured_RNA)
RNA: GGGAAUCUCGCGCCGGUCACUCUUUGAGGGUGUACGAAGUUUCAGCCAGCCCUGCACUGAACGCUGAAGCUUCGUGCAC
B4: the binding signal with U1A is 2.72 z-score; with LIN28A, 0.813 z-score; with CIRBP it was -0.34 z-score; with DHX36, -0.199 z-score.

B5: hsa-let-7a-2 (structured_RNA)
RNA: GGGAAAACACGUCAGCGCAACAAGGUUUGGUGUACGAAGUUUCAGCAUAGUUUAGAAUUACAUCAAGGGAGAUAACUGUGCUGAAGCUUCGUGCAC
For B5, the binding signal in the test with U1A is 1.35 z-score; in the test with LIN28A it was 1.96 z-score; with CIRBP it was 0.893 z-score; with DHX36, 1.83 z-score.

B6: hsa-mir-4489 (structured_RNA)
RNA: GGGAUAGGGUUAAGAUACCGGCGUUUGCGGUGUACGAAGUUUCAGCGCUGGGGACUGGAGAAGCUGAAGCUUCGUGCAC
Regarding B6, the binding signal with U1A was found to be 1.41 z-score; with LIN28A it was 2.2 z-score; with CIRBP it was 1.76 z-score; with DHX36, 1.78 z-score.

B7: hsa-mir-1260a (structured_RNA)
RNA: GGGAAAAGGUUCCGGCAGCACUCGAAUGGGUGUACGAAGUUUCAGCACCAAAACACUCAUCGCGGGCUGAAGCUUCGUGCAC
In the case of B7, the binding signal in the test with U1A is 1.38 z-score; with LIN28A it was -0.346 z-score; in the test with CIRBP, -1.21 z-score; in the test with DHX36, -0.074 z-score.

B8: hsa-mir-3975 (structured_RNA)
RNA: GGGAAGCUUGCACCACGUAAGGAGGUCCGGUGUACGAAGUUUCAGCUAUUUCAAAAGACUAGAGGUAGGAAAUGAGGCUGAAGCUUCGUGCAC
Turning to B8, the binding signal in the test with U1A worked out at 1.4 z-score; with LIN28A it was 1.2 z-score; with CIRBP, 0.295 z-score; with DHX36 it was 0.0941 z-score.

B9: hsa-mir-3660 (structured_RNA)
RNA: GGGAAGAGCCCUUAUGGGGAAAACCACAGGUGUACGAAGUUUCAGCCAUUGUAAUAGUUCAUAUGGGCACUGGCUGAAGCUUCGUGCAC
On to B9, for which the binding signal with U1A is 1.43 z-score; in the test with LIN28A it was -0.0695 z-score; with CIRBP, 0.315 z-score; in the test with DHX36, -0.958 z-score.

B10: hsa-mir-5186 (structured_RNA)
RNA: GGGACGCAUAGUCAGUUGUGCUCUAAACGGUGUACGAAGUUUCAGCCUUUCCUCAGCUGAUUUCUUUCUGGGGAGAGGCUGAAGCUUCGUGCAC
Consider B10, for which the binding signal with U1A worked out at 1.38 z-score; with LIN28A, 0.00297 z-score; with CIRBP, 0.718 z-score; with DHX36, 0.554 z-score.

B11: hsa-mir-4634 (structured_RNA)
RNA: GGGACACGUAGGCACGCACUGAAAUCACGGUGUACGAAGUUUCAGCGGGGCUCUUGCUGAAGCUUCGUGCAC
As to B11, the binding signal with U1A is 1.38 z-score; with LIN28A it was -0.644 z-score; with CIRBP, -0.977 z-score; with DHX36 it was 0.261 z-score.

B12: hsa-mir-6815 (structured_RNA)
RNA: GGGACACAUGUGGCCGACCAUUGAAUAGGGUGUACGAAGUUUCAGCGUCAUUUCCCAUCACUAAUGGCGCUGAAGCUUCGUGCAC
In the case of B12, the binding signal was 1.41 z-score with U1A, -0.89 z-score in the test with LIN28A, -0.144 z-score with CIRBP and -1.09 z-score in the test with DHX36.

B13: hsa-mir-6834 (structured_RNA)
RNA: GGGAAAGAGAAGGCAGUCUUUCAUAGAGGGUGUACGAAGUUUCAGCUUUGUGGGGCGAGGAGGGACCUGUACUAGCCAUGGUUCUGAUCACAUAUGGCUGAAGCUUCGUGCAC
Turning to B13, the binding signal with U1A was determined as 1.37 z-score; with LIN28A, 1.01 z-score; with CIRBP it was 1.89 z-score; in the test with DHX36 it was 2.76 z-score.

B14: PARIS_ID44 (structured_RNA)
RNA: GGGAAAUAACGCCGGAUCUUAGUGUAAUGGUGUACGAAGUUUCAGCGGCUGUGGAGUGUAUGAAUUUAUAAAUCACUGGUCUUGUAAUUAAAAUUCAAACACUAUAGAAAAAGGCCGCUGAAGCUUCGUGCAC
In the case of B14, the binding signal with U1A turned out to be 1.41 z-score; in the test with LIN28A, 1.64 z-score; with CIRBP, 1.47 z-score; with DHX36 it was 0.605 z-score.

B15: hsa-mir-325 (structured_RNA)
RNA: GGGACCACUCCCUGGGACGUUAACAACGGGUGUACGAAGUUUCAGCGUGUUUGUGACAUAAUUUGUGCUGAAGCUUCGUGCAC
As for B15, the binding signal was 1.37 z-score with U1A, 0.252 z-score in the test with LIN28A, -1.24 z-score in the test with CIRBP and -0.633 z-score in the test with DHX36.

B16: hsa-mir-5589 (structured_RNA)
RNA: GGGACCACAACGUUCGAGAACCAAAAUCGGUGUACGAAGUUUCAGCUGCAGUGAGCAACCUACACAACUGCAGCUGAAGCUUCGUGCAC
In the case of B16, the binding signal in the test with U1A is 1.36 z-score; in the test with LIN28A it was 0.184 z-score; with CIRBP, 0.671 z-score; in the test with DHX36 it was -0.95 z-score.

B17: hsa-mir-212 (structured_RNA)
RNA: GGGAACGCGGAUAGUUGAUUUUCCUGCGGGUGUACGAAGUUUCAGCCUUACUGCCCGGGCCGCCCUCAGUAAGCUGAAGCUUCGUGCAC
In the case of B17, the binding signal with U1A was 1.41 z-score; with LIN28A, 0.255 z-score; with CIRBP, -0.0218 z-score; with DHX36, -0.00438 z-score.

B18: hsa-mir-6130 (structured_RNA)
RNA: GGGAACAACUCUCGCGACCUAAAGCACUGGUGUACGAAGUUUCAGCUAUAUACUGAUGUAAUUUUCCUUGGAUUUAUAUGCAGUACUGAGGCUGAAGCUUCGUGCAC
As for B18, the binding signal with U1A is 1.39 z-score; with LIN28A, -0.295 z-score; in the test with CIRBP, 0.546 z-score; with DHX36, -0.476 z-score.

B19: hsa-mir-4643 (structured_RNA)
RNA: GGGAGCUUCGCAACGCCGAUACACACAUGGUGUACGAAGUUUCAGCUGUUCAUUCACAUGAUCAUAAGUGGACAGCUGAAGCUUCGUGCAC
On to B19, for which the binding signal came to 1.41 z-score with U1A, 0.0118 z-score in the test with LIN28A, 0.54 z-score in the test with CIRBP and 0.856 z-score with DHX36.

B20: hsa-mir-378e (structured_RNA)
RNA: GGGACAGCUGGUGUAAAGCGACAAUCACGGUGUACGAAGUUUCAGCCAGGCCAGGGGCAGACAGUGGACAGAGAACAGUGCCCAAGACCACUGGCUGAAGCUUCGUGCAC
On to B20, for which the binding signal in the test with U1A is 1.38 z-score; in the test with LIN28A, 1.5 z-score; with CIRBP it was -0.296 z-score; in the test with DHX36 it was 1.79 z-score.

B21: r(GAA)16: (structured_RNA)
RNA: GGGAAAUCCGCUCAGCUGCCUUUACCGUGGUGUACGAAGUUUCAGCGAAGAAGAAGAAGAAGAAGAAGAAGAAGAAGAAGAAGAAGAAGAAGAAGCUGAAGCUUCGUGCAC
Consider B21, for which the binding signal with U1A was 2.7 z-score; with LIN28A it was 2.77 z-score; with CIRBP it was 10.7 z-score; with DHX36 it was 2.93 z-score.

B22: hsa-mir-138-1 (structured_RNA)
RNA: GGGACAGAUCAACCAGGGGAUGACUAAUGGUGUACGAAGUUUCAGCAGGCCGUUGCCAAUCAGAGAACGGCUAGCUGAAGCUUCGUGCAC
Regarding B22, the binding signal in the test with U1A turned out to be 1.4 z-score; in the test with LIN28A, 0.469 z-score; with CIRBP, 1 z-score; in the test with DHX36 it was 0.18 z-score.
